The test concerns Cytosolic phospholipase A2 (Bos taurus). As to the kind of experiment: Inhibitory activity against cPLA2 (cytosolic Phospholipase A2) by measuring the calcium ionophore A-23,187-induced arachidonic acid release from bovine platelets at a compound conc of 33 uM.

Take `CCCCCCCCCCCCCCCCCC(=O)c1c(CC(=O)O)n(C)c2ccccc12`: the inhibition (as a rule, the change of the read-out against control, counted positive when it falls) is above 28%.

Source of the values: ChEMBL document CHEMBL1130122, “Synthesis, biological evaluation, and structure-activity relationships of 3-acylindole-2-carboxylic acids as inhibitors of the cytosolic phospholipase A2” (J Med Chem, 1997).
